# According to patent US6348445B1, “Biologically active peptides with reduced toxicity in animals and a method for preparing same” (priority 1992, dated 2002):
# Legend:
# S. aureus ATCC 29213 = format: cell-based
# [1] = system: A-549 human lung carcinoma cells; format: cell-based; conditions: 24 h
# Protocol: (§1) Human lung carcinoma cells, A-549 (ATCC), and human breast carcinoma cells, MDA-435 (from Sandoz), were grown in Ham's F12K medium (GIBCO-BRL) supplemented with […] fetal bovine serum. Human chronic myelogenous leukemia cells, K-562 (ATCC), were maintained in RPMI 1640 medium (GIBCO-BRL) supplemented with 10% fetal bovine serum. Human melanoma cell line, WM 1617 (from the Wistar Institute), was maintained in 2% Tumor media.
# (§2) Cytotoxicity assays were performed on the cell lines described above using CytoLite (Packard Instrument Company) following the manufacture's instruction. Briefly, 2×10^4cells/well were seeded into black, 96-well ViewPlates (Packard Instrument Company) in 100 μl/well growth medium. Ser. dilutions of Magainin peptides were then added into the cells and the plates incubated for 24 hours in a humidified 5% CO2 atmosphere at 37° C. Following incubation, 25 μl/well of CytoLite activator solution was added followed by 125 μl/well of amplifier solution. Luminescence was measured on TopCount Microplate Scintillation and Luminescence counter (Packard Instrument Company) using a 1 second count time in SPC (single photon counting) mode at 25 ° C. All assays were performed in triplicate. The peptides tested in this assay were MSI-78(SEQ ID NO: 154 —NH2), MSI-1858(SEQ ID NO: 154 —NH2 Methane Sulfonate), MSI-344(SEQ ID NO: 154 —OH) and MSI-1857(SEQ ID NO: 154 —OH Methane Sulfonate). The results of these assays are shown in FIGS. 2-9 with the corresponding IC50 values in Table VIII. In all cases the activity of the methane sulfonated peptide was as good or better than the parent peptide as indicated by both the survival curves and the IC50 values.
# [2] = system: K-562 human chronic myelogenous leukemia cells; format: cell-based; conditions: 24 h
# Protocol: as §1, §2
# [3] = system: MDA-435 human breast carcinoma cells; format: cell-based; conditions: 24 h
# Protocol: as §1, §2
# [4] = system: WM 1617 human melanoma cells; format: cell-based; conditions: 24 h
# Protocol: as §1, §2
# [5] = MTD of repeat-dose intraperitoneal administration; format: in vivo, SCID mice; conditions: for MTD at 504 h: male, SCID (Fox Chase C.B-17/IcrTac-scidfDF), mouse, in vivo, ip
# Protocol: Determinations of a maximal tolerated dose (MTD) of repeat-dose intraperitoneal (i.p.) administration of MSI-344 or MSI-1857 in 60 SCID mice were done. Mice were injected with various doses of MSI-344 or MSI-1857 twice or thrice per week. Survival and body weight were monitored. On a twice per week dosing schedule, the MTDs of MSI-344 and MSI-1857 were 12 and 134 mg/kg/week, respectively. […] On a thrice per week dosing schedule, no deaths occurred in any groups, with high dose groups of MSI-344 and MSI-1857 receiving 90 mg/kg/week and […], respectively. A transient body weight loss was seen after initial dosing in most MSI-344 and MSI-1857 groups. No body weight loss greater than 6% occurred in any group on the thrice per week dosing schedule.
# To determine estimates of MTDs of MSI-344 and MSI-1857 when administered intraperitoneally on repeat-dose regimens in SCID mice. The selection of SCID mice was based on the future plans of using this strain as host for xenograft human tumor efficacy models, and a pre-requisite for determining MTD for chronic administration that may be used during the efficacy model.
# SCID mice are immunocompromised and therefore they were housed and handled in sterile environments. They had access to sterile water and sterilized chow ad lib.
# A 1 mg/mL solution of MSI-344 was made in saline (0.9% sodium chloride injection USP, Abbott, North Chicago, Ill.) corrected for peptide content. Solutions of MSI-344 at concentrations of 0.6, 0.3, and 0.1 mg/mL were made by diluting the 1 mg/mL solution using saline as diluent. A 10 mg/mL solution of MSI-1857 was made in saline.
# Solutions of MSI-1857 at concentrations of 6.7, 3.3, 3, 2, and 1 mg/mL were made by diluting the 10 mg/mL solution using saline as diluent.
# Mice (four mice per dose group) were intraperitoneally administered MSI-344 or MSI-1857 using an injection volume of 10 mL/kg of the appropriate solution concentration on a twice per week (Groups 1 through 7) or thrice per week (Groups 8 through 15) dosing schedule every week for 20 weeks. Survival was monitored daily and body weights were recorded three times per week An interim analysis was performed at 3 weeks and the results of this interim analysis is presented in the present report.
smiles,measurement,setting,value
CC[C@H](C)[C@H](NC(=O)CNCS(=O)(=O)O)C(=O)NCC(=O)N[C@@H](CCCCNCS(=O)(=O)O)C(=O)N[C@@H](Cc1ccccc1)C(=O)N[C@@H](CC(C)C)C(=O)N[C@@H](CCCCNCS(=O)(=O)O)C(=O)N[C@@H](CCCCNCS(=O)(=O)O)C(=O)N[C@@H](C)C(=O)N[C@@H](CCCCNCS(=O)(=O)O)C(=O)N[C@@H](CCCCNCS(=O)(=O)O)C(=O)N[C@@H](Cc1ccccc1)C(=O)NCC(=O)N[C@@H](CCCCNCS(=O)(=O)O)C(=O)N[C@@H](C)C(=O)N[C@@H](Cc1ccccc1)C(=O)N[C@H](C(=O)N[C@@H](CCCCNCS(=O)(=O)O)C(=O)N[C@H](C(=O)N[C@@H](CC(C)C)C(=O)N[C@@H](CCCCNCS(=O)(=O)O)C(=O)N[C@@H](CCCCNCS(=O)(=O)O)C(=O)O)[C@@H](C)CC)C(C)C [MSI-1857],MIC S. aureus ATCC 29213,S. aureus ATCC 29213,128 µg/mL
same,IC50,[1],6 µM
same,IC50,[2],7.5 µM
same,IC50,[3],4 µM
same,IC50,[4],3 µM
same,effect of initial dosings on body weight,[5]; all surviving groups except the low dose group on the thrice-per-week schedule,dose-dependent transient body weight loss
same,"MTD, thrice per week dosing schedule","[5]; i.p., SCID mice, interim analysis at 3 weeks",greater than or equal to 90 mg/kg/week
same,MTD at 504 h,"[5]; SCID mice, interim analysis at 3 weeks, read-out: MTD, thrice per week dosing schedule",≥ 12.9 mg/kg/day
same,MTD at 504 h,"[5]; SCID mice, interim analysis at 3 weeks, read-out: MTD, twice per week dosing schedule (converted)",19.1 mg/kg/day
same,fold increase in safety index compared to MSI-344,[5]; twice per week i.p. dosing,11 fold

# Read-outs that look alike come from different tables or passages of the source.
